{"source": "the RepoRT retention time repository (doi:10.1016/j.foodchem.2015.11.070)", "experiment": "Thermo Scientific Hypersil GOLD aQ, 100 × 2.1 mm, 1.9 µm, 30 °C, 0.3 mL/min, estimated dead time 0.73 min; A: water + 0.01% formic acid + 4 mM ammonium formate; B: methanol + 0.01% formic acid + 4 mM ammonium formate; gradient (min/%B) 0/5 1/5 8/100 12/100", "details": "stereoisomer not certain"}
{"smiles": "CCOP(=S)(OCC)Oc1ncn(-c2ccccc2)n1", "values": [{"measurement": "LC retention time", "result": 9.79, "unit": "min"}]}
